Data reported in BigSolDB 2.1.

CC[C@H]1OC(=O)C[C@@H](O)[C@H](C)[C@@H](O[C@@H]2O[C@H](C)[C@@H](O[C@H]3C[C@@](C)(O)[C@@H](O)[C@H](C)O3)[C@H](N(C)C)[C@H]2O)[C@@H](CC=O)C[C@@H](C)C(=O)/C=C/C(C)=C/[C@@H]1CO[C@@H]1O[C@H](C)[C@@H](O)[C@@H](OC)[C@H]1OC.O=C(O)[C@H](O)[C@@H](O)C(=O)O
solubility (mole fraction)
Settings | 293.15 K | 298.15 K | 303.15 K | 308.15 K | 313.15 K | 318.15 K | 323.15 K
in THF | 0.00072 | 0.00084 | 0.00092 | 0.00103 | 0.0012 | 0.00134 | 0.00151
in methanol | 0.00457 | 0.00508 | 0.00579 | 0.00638 | 0.00722 | 0.00841 | 0.00993
